33 compounds from PubChem BioAssay (EPA / NIEHS) can be followed below.

The chains behind the UniProt entries cited, without tags or fusion partners. Where a name states a change or a piece, a line headed by the entry shows the natural chain unless it says otherwise.
UniProt Q96RI1: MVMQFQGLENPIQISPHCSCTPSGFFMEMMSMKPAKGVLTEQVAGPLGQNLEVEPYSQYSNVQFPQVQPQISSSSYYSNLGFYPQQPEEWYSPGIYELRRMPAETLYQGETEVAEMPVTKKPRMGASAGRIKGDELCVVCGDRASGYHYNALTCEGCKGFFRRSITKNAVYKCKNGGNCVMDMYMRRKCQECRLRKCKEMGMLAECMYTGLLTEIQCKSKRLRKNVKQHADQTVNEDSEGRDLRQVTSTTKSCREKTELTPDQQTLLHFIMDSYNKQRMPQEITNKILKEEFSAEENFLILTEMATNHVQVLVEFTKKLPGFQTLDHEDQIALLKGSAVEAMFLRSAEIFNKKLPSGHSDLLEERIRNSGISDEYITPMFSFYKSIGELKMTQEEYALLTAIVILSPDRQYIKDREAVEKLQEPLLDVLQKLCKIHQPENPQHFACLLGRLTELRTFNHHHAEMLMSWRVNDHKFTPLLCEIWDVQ

Molecules are shown by their SMILES. The list shows a part of the results, in another mix than the full data. Records with an inconclusive call do not appear. The source made the active and inactive calls. The calls were made as follows, unless noted: active = hit-call score of the fitted dose curve at least 0.9, where 1 is the maximum; inactive = score below 0.9.

Test [1] can be described thus: ATG_PPRE_CIS: Attagene CIS-FACTORIAL HepG2 Assay for human Peroxisome Proliferator-activated Response Element (PPRE) (AID 2282958). As to conditions: HepG2 PPRE cis-element reporter, Attagene transcription factor profiling; actives raise or lower the signal.
The nature of test [2]: ATG_RORE_CIS: Attagene CIS-FACTORIAL HepG2 Assay for human RAR-related Orphan Receptor Element (RORE) (AID 2282959). The conditions noted are these: HepG2 Attagene cis-factorial RORE reporter, mRNA; actives raise or lower the signal.
The target in test [3] is Bile acid receptor (Homo sapiens) (UniProt Q96RI1). Put plainly: OT_FXR_FXRSRC1_0480: Odyssey Thera (OT) 8-hour HEK293T Protein-Complementation Assay for Farnesoid X receptor/SRC-1 Co-activator (AID 2283383; active = hit-call score of the fitted dose curve at least 0.9, where 1 is the maximum). An outline of the steps:
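PCA, HEK293T, 8 h compound exposure; FXR–SRC-1 binding reconstitutes split reporter; fluorescence intensity; positive-direction fit vs DMSO.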

Test [4] shares this target. Put plainly: OT_FXR_FXRSRC1_1440: Odyssey Thera (OT) 24-hour HEK293T Protein-Complementation Assay for Farnesoid X receptor/SRC-1 Co-activator (AID 2283384; active = hit-call score of the fitted dose curve at least 0.9, where 1 is the maximum). An outline of the steps: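 Measures ligand-driven FXR–SRC-1 co-activator recruitment in HEK293T via fragment complementation, fluorescence intensity at 24 h. DMSO served as negative control and baseline for gain-of-signal fitting.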

Regarding `C=CC(=O)NCOCC(C)C`, the outcome in test [1] and in test [2] was inactive.
Regarding `CC(=O)CC(=O)Nc1ccccc1C`, the outcome in test [1] and in test [2] was inactive.
By AC50 is commonly meant the midpoint of the concentration-response curve, whichever way the signal moves. As to `NC(=O)c1nc(-c2cccc(-c3cc(F)ccc3OCC(F)(F)C(F)(F)F)c2)n[nH]1`, the half-maximal activity concentration (AC50) in test [1] is active: 8.43 µM; in test [2] it was active: 16.9 µM; in test [3], active: 11.7 µM. In addition, the call in test [4] was inactive.
As for `O=c1c(O)c(-c2ccc(O)cc2O)oc2cc(O)cc(O)c12`, the outcome in test [1] and in test [2] was inactive. The concentration at half-maximal activity (AC50) is active: 28.3 µM in test [3] and active: 72.3 µM in test [4].
For the compound `CCCOCCO`, the result in test [1] and in test [2] was inactive.
For `O=C(O)C(=O)O`, the compound was classed as inactive in test [1] and in test [2].
As to `O=C1c2ccccc2C(=O)N1CCc1noc(-c2ccc(CN3CCCCCC3)s2)n1`, in test [1], the compound was called inactive. In addition, the AC50 in test [3] is active: 9.78 µM.
As for `O=S(=O)(O)c1ccc2cc(O)ccc2c1`, the compound was classed as inactive in test [1] and in test [2].
Turning to `O=C(O)c1ccco1`, the compound was called inactive in test [1] and in test [2].
Regarding `[Na+]`, the call in test [1], in test [2] and in test [4] was inactive.
As for `CC(O)(P(=O)(O)O)P(=O)(O)O`, the call in test [1] and in test [2] was inactive.
As for `Cc1ccc(S(=O)(=O)NCl)cc1`, the compound was classed as inactive in test [1] and in test [2].
For `CCN(C(=O)c1cc(C)cc(OC[C@H](C)Nc2ccncc2)c1)C(C)C`, the outcome in test [1], in test [2], in test [3] and in test [4] was inactive.
`O=C(CCCCCCCCc1cccnc1)N1CCC(C=C(c2ccccc2)c2ccccc2)CC1`: the AC50 in test [2] was active: 2.81 µM.
As to `CC(C)c1ccc2c(c1)CC[C@H]1[C@](C)(CN)CCC[C@]21C`, the call in test [1] and in test [2] was inactive.
On to `CC(C)CCCCCCc1ccc(OCCOCCO)cc1`, for which the result in test [1] and in test [2] was inactive.
`COC(=O)c1ccc(OC)cc1`: the call in test [1] and in test [2] was inactive.
Take `O=S(=O)(O)c1ccc(O)c2ncccc12`: the compound was called inactive in test [1] and in test [2].
`C[C@@H]1CCN(C(=O)[C@H](CCCN=C(N)N)NS(=O)(=O)c2cccc3c2NC[C@H](C)C3)[C@@H](C(=O)O)C1`: the compound was called inactive in test [1] and in test [2].
In the case of `C[N+](C)(C)CCCNS(=O)(=O)C(F)(F)C(F)(F)C(F)(F)C(F)(F)C(F)(F)C(F)(F)C(F)(F)C(F)(F)F`, the compound was called inactive in test [1] and in test [2].
Take `O=S(=O)(O)c1cccc2c(S(=O)(=O)O)cccc12`: the call in test [1] and in test [2] was inactive.
Regarding `CC[C@]12CCCN3CCc4c(n(c5ccccc45)[C@@](O)(C(=O)OC)C1)[C@@H]32`, the compound was called inactive in test [1] and in test [2].
For the compound `O=C(O)c1ccc2c(c1)C(=O)OC2=O`, the outcome in test [1] and in test [2] was inactive.
Consider `O=C(C(Cl)Cl)N1CCOC12CCCCC2`, for which the compound was called inactive in test [2].
Consider `CN(C)C`, for which the result in test [1] and in test [2] was inactive.
`NCCNc1cccc2ccccc12`: the AC50 in test [2] is active: 55.6 µM.
For `CN1CCN(Cc2cc(-c3ccc4[nH]c(=O)oc4c3)co2)[C@@H](c2ccc(F)cc2)C1`, the outcome in test [1] and in test [2] was inactive.
In the case of `Cc1occc1C(=O)Nc1ccc(C(=O)N2CCC(F)(F)/C(=C\C(=O)N3CCC(N4CCCCC4)CC3)c3ccccc32)cc1`, the AC50 in test [1] is active: 3.91 µM; in test [3], active: 25.8 µM; in test [4] it was active: 30.1 µM. In test [2], the outcome was inactive.
On to `C=CCNCC=C`, for which the outcome in test [1] and in test [2] was inactive.
Take `[Cl][Eu]([Cl])[Cl]`: the outcome in test [1] and in test [2] was inactive.
With `[Cl][Sc]([Cl])[Cl]`, the result in test [1] and in test [2] was inactive.
On to `CCCCCCCCCCCCCCCC(=O)O`, for which the result in test [1] and in test [2] was inactive.
Turning to `CC(=O)OC1C2(C)CCC(C2)C1(C)C` (stereo unspecified), the call in test [2] was inactive.
